Target: T1, Histone deacetylase 8 (Homo sapiens, UniProt Q9BY41)
T1 sequence (Q9BY41 whole entry): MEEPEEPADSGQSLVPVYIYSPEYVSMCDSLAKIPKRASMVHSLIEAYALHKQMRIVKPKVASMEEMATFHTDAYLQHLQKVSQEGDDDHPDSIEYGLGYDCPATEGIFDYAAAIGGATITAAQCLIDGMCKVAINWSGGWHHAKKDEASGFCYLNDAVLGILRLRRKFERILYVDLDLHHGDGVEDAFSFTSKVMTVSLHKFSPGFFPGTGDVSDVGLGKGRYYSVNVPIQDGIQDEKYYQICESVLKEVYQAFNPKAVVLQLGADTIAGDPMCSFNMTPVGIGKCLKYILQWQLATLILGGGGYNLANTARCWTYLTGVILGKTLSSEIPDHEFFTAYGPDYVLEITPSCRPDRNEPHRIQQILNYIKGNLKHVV
Experiment: Inhibition of HDAC8 (unknown origin)

IC50: 370 nM
SMILES: O=C(CCCCCCC(=O)Nc1ccccc1)NO [VORINOSTAT]

From ChEMBL document CHEMBL4609972, “Histone deacetylase 8 (HDAC8) and its inhibitors with selectivity to other isoforms: An overview” (Eur J Med Chem, 2019)
